The values below come from ChEMBL document CHEMBL5725595, “Indole carboxamide derivatives as P2X7 receptor antagonists” (2017).

By UniProt entry, the sequences of proteins in these tests, tags left out. Where a name states a change or a piece, a line headed by the entry shows the natural chain unless it says otherwise.
UniProt Q99572, whole entry: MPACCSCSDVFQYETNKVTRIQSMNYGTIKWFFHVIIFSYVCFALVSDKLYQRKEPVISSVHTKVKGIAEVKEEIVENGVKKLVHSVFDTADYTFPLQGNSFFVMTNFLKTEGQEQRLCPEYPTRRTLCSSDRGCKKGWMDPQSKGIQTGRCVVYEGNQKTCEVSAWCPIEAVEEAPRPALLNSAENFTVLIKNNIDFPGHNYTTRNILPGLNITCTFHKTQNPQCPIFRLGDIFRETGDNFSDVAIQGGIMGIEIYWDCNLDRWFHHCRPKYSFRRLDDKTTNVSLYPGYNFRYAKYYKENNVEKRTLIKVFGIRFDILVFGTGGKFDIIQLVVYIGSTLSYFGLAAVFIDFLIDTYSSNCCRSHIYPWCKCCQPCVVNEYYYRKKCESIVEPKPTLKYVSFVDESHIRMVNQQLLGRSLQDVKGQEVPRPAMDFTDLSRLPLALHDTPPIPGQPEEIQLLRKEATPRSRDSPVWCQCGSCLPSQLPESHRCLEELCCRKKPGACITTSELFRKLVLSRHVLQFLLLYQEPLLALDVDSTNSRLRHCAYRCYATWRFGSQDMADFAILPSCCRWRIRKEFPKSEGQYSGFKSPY

The target in this assay is P2X purinoceptor 7 (Homo sapiens, UniProt Q99572).

This is a selection: effects in other tests are not listed, and their absence says nothing.

As a reminder, the IC50 is the concentration that inhibits the measured activity by half. Take `NC1(CNC(=O)c2ccc3[nH]ccc3c2Cl)CCCCC1`: the IC50 was found to be 1.56 µM.
